Among the data in ChEMBL document CHEMBL2440083 (J Med Chem, 2013) are fold change (FC) values, retold here.

The species entered for one assay is Rattus norvegicus. Put plainly: Analgesic effect in rat by hot plate assay relative to morphine. For orientation: Thermal pain tests record how soon the animal reacts.
The species named for the next assay is Mus musculus. Put plainly: Analgesic effect in mouse by hot plate assay relative to morphine.

In the case of `COc1ccsc1CNCC[C@@]1(c2ccccn2)CCOC2(CCCC2)C1` [OLICERIDINE], the fold change (FC) in the assay filed under Rattus norvegicus and in the assay filed under Mus musculus was 3 in each case.
